# Measured values published in patent US6989364B1, “Methods for treating cardiac hypertrophy by administering IFN-γ” (Genentech, Inc., priority 1998, dated 2006).
# B1: IFN-β: fibroblast interferon; other cytokine tested for inhibition of the spreading response (protein, UniProt P01574 22-187, looked up)
# Interferon beta: MSYNLLGFLQRSSNFQCQKLLWQLNGRLEYCLKDRMNFDIPEEIKQLQQFQKEDAALTIYEMLQNIFAIFRQDSSSTGWNETIVENLLANVYHQINHLKTVLEEKLEKEDFTRGKLMSSLHLKRYYGRILHYLKAKEYSHCAWTIVRVEILRNFYFINRLTGYLRN
# Test system: adult rat cardiac myocytes
# Assay: Inhibition of PGF2α-induced spreading response of adult myocytes
# Assay type: cell-based
# Protocol: FIGS. 1A–1F Inhibition of prostaglandin F2α (PGF2α)-induced spreading response by IFN-γ. Myocytes were pre-incubated with saline vehicle or IFN-γ (500 U/ml) on day of isolation. A second addition of vehicle or IFN-γ was performed 24h after isolation, along with the addition of either vehicle or PGF2α (10^−7 M). After an additional 72 hr incubation, cells were fixed in glutaraldehyde, stained with eosin Y and viewed by fluorescence microscopy. A, B, C Cardiac myocytes after 4 days in culture: control, PGF2α, and PGF2α+IFN-γ, respectively. D, E, F Histographs showing maximum breadth of rod shaped cardiac myocytes versus percent frequency of breadth occurrence. The maximum breadth of rod-shaped cells was determined by fluorescence microscopy and imaging software. At least 200 rod shaped cells from a single experiment were examined per group. […] P<0.001 for all group comparisons.
# FIGS. 2A–2E Dose responsive inhibition of PGF2α-induced response by IFN-γ (500–25 U/ml). […] After an additional 72 hr incubation, cells were fixed in glutaraldehyde, stained with eosin Y and viewed under fluorescence. Quantitation of myocyte morphology: A control, B PGF2α, C PGF2α+IFN-γ (25 U/ml), D PGF2α+IFN-γ (100 U/ml), E PGF2α+IFN-γ (500 U/ml). […] The maximum breadth of rod-shaped cells was determined by fluorescence microscopy and imaging software. […]
row,Molecule,Ability of other cytokines to inhibit PGF2α induced myocyte spreading
1,IL-2: other cytokine tested for inhibition of the spreading response,could not inhibit the spreading response
2,B1,could not inhibit the spreading response
